Reference: ChEMBL document CHEMBL4725319, “Discovery of attenuation effect of orexin 1 receptor to aversion of nalfurafine: Synthesis and evaluation of D-nor-nalfurafine derivatives and analyses of the three active conformations of nalfurafine” (Bioorg Med Chem Lett, 2020)
The source made the active and inactive calls. The calls are words filed in the database; no cut-off is given here.

Assays:
[1] = organism: Mus musculus; assay: Analgesic activity in OX1R knock out mouse assessed as increase in wheel running activity
[2] = organism: Mus musculus; assay: Analgesic activity in mouse assessed as increase in wheel running activity

CN(C(=O)Cc1ccc(Cl)c(Cl)c1)C1CCCCC1N1CCCC1 (configuration not stated)
Activity [1]: Active | Activity [2]: Active
